Laboratory results published in patent US11312763B2, “Anti-N3pGlu amyloid beta peptide antibodies and uses thereof” (Eli Lilly and Company, priority 2016, dated 2022).
Residue numbers refer to the chain shown, from its start.

Experiments:
[1] = Phase I single-dose and multiple-dose, dose-escalation study: PK; type: in vivo, human
Excerpt: (§1) This phase concluded with a 12-week follow-up period.

[2] = Phase I single-dose and multiple-dose study: safety, antidrug antibodies; type: in vivo, human
Excerpt: as §1

cerebral amyloid [3] = assay: Phase I study: florbetapir PET imaging of cerebral amyloid; type: in vivo, human
Experimental: as §1
Florbetapir scans were performed at baseline and after the last MAD dose, separated by approximately 7 months. The change in whole grey matter standardized uptake value ratio (SUVr) with cerebellum as a reference region was compared across dose cohorts, and the SUVr values were convened to standardized centiloid (CL) units.

cerebral amyloid [4] = assay: Phase Ib single- and multiple-dose study: quantitative amyloid PET imaging (florbetapir CL); type: in vivo, human
Experimental: A phase Ib, double-blind, randomized within cohort, placebo-controlled, parallel-group, single- and multiple-dose study in patients with MCI due to AD or mild-to-moderate AD is being conducted to assess the safety, tolerability, and PK of single and multiple IV doses of Antibody III. The study will be conducted in at least seven cohorts, including single IV doses at 10 mg/kg, 20 mg/kg, or 40 mg/kg (cohorts 1, 2, and 3, respectively), IV doses every two weeks for 24 weeks at 10 mg/kg or 20 mg/kg (cohorts 4 and 5, respectively), and IV doses every four weeks for up to 72 weeks at 10 mg/kg or 20 mg/kg (cohorts 6 and 7, respectively).
The primary target engagement outcome is the reduction of cerebral amyloid as measured by quantitative amyloid PET imaging (florbetapir CL) assessed at baseline and at 12 weeks, 24 weeks, 36 weeks, 48 weeks, and 72 weeks after starting treatment.

deposited Aβ = assay: Ex vivo target engagement on fixed PDAPP brain sections (immunohistochemistry); type: binding, aged PDAPP mice; conditions: 20 μg/mL antibody on brain sections of 25-month old PDAPP mice
Experimental: Cryostat serial coronal sections from aged PDAPP mice (25-month old) are incubated with 20 μg/mL of an exemplified N3pGlu Aβ antibody of the present invention. Secondary HRP reagents specific for human IgG are employed and the deposited plaques are visualized with DAB-Plus (DAKO). Biotinylated murine 3D6 antibody followed by Step-HRP secondary is used as a positive control.

[5] = 6 patients, 3 to 5 doses of 10 mg/kg IV over 6 months

B1: Antibody III: anti-N3pGlu Aβ antibody, LC SEQ ID NO: 28 and HC SEQ ID NO: 29 (antibody)
heavy: QVQLVQSGAEVKKPGSSVKVSCKASGYDFTRYYINWVRQAPGQGLEWMGWINPGSGNTKYNEKFKGRVTITADESTSTAYMELSSLRSEDTAVYYCAREGITVYWGQGTTVTVSSASTKGPSVFPLAPSSKSTSGGTAALGCLVKDYFPEPVTVSWNSGALTSGVHTFPAVLQSSGLYSLSSVVTVPSSSLGTQTYICNVNHKPSNTKVDKKV[human IgG1 Fc left out here]
light: DIVMTQTPLSLSVTPGQPASISCKSSQSLLYSRGKTYLNWLLQKPGQSPQLLIYAVSKLDSGVPDRFSGSGSGTDFTLKISRVEAEDVGVYYCVQGTHYPFTFGQGTKLEIKRTVAAPSVFIFPPSDEQLKSGTASVVCLLNNFYPREAKVQWKVDNALQSGNSQESVTEQDSKDSTYSLSSTLTLSKADYEKHKVYACEVTHQGLSSPVTKSFNRGEC
[1]; AD patients, single IV dose 1.0 mg/kg
  mean clearance: 35.6 mL/h
[1]; AD patients, single IV dose 10 mg/kg
  mean clearance: 26.3 mL/h
[1]; AD patients, single IV dose from 0.1 mg/kg to 3.0 mg/kg
  mean terminal elimination half-life: approximately 4 days
[1]; multiple-dose phase, 10-mg/kg dose level
  Antibody III concentrations following multiple doses versus single-dose administration: generally similar to those observed after single-dose administration
[1]; multiple-dose phase, dose levels other than 10 mg/kg
  Antibody III concentrations following multiple doses versus following the first single dose: significantly lower
[1]; multiple-dose phase, most patients at dose levels ≤3 mg/kg
  serum Antibody III concentrations 28 days after dosing: below the limits of detection
[1]; multiple-dose phase, patients receiving 10 mg/kg
  serum Antibody III concentrations 28 days after dosing: sustained quantifiable concentrations
[2]; 3 months after the first dose, all dose groups
  patients with treatment-emergent antidrug antibodies (ADAs): Greater than 90%
[2]; [5]
  cerebral vasogenic edema or microhemorrhage complications: without cerebral vasogenic edema or microhemorrhage complications
[2]; by the end of the MAD phase, persist 3 months after the last dose
  ADA titers: tended to increase
[2]; upon multiple dosing
  infusion related reactions: increased infusion related reactions
Cerebral amyloid [3]; [5]
  mean reduction of cerebral amyloid: 44 CL units
Cerebral amyloid [3]; 6 patients, 3 to 5 doses of 10 mg/kg IV over 6 months, baseline vs after last MAD dose (approx. 7 months)
  change in cerebral amyloid (florbetapir PET imaging): significant reduction
Cerebral amyloid [3]; corresponds to the mean CL reduction, 3 to 5 doses of 10 mg/kg IV over 6 months
  mean reduction in brain amyloid: 40-50%
Cerebral amyloid [3]; three subjects, 3-5 doses of 10 mg/kg IV, 18 months after last dose
  amyloid removal in extended follow up (florbetapir scans): sustained amyloid removal
Cerebral amyloid [4]; 10, 20 and 40 mg/kg single doses and 10 mg/kg multiple doses, 12 weeks
  mean reductions of amyloid in cohorts to date by florbetapir PET: −12 to −39 CL
Cerebral amyloid [4]; multiple dose cohort, with dosing
  amyloid clearance in scans beyond 12 weeks: further amyloid clearance is observed
Cerebral amyloid [4]; single dose cohorts
  amyloid clearance in scans beyond 12 weeks: amyloid clearance is sustained
Deposited Aβ
  labeling of deposited Aβ in PDAPP hippocampus: labeled a subset of deposits

B2: Antibody V: anti-N3pGlu Aβ antibody, LC SEQ ID NO: 33 and HC SEQ ID NO: 35 (antibody)
heavy: B1 heavy with D28T, R31D, I101E
light: B1 light
Deposited Aβ
  labeling of deposited Aβ in PDAPP hippocampus: labeled a subset of deposits

B3: Antibody IV: anti-N3pGlu Aβ antibody, LC SEQ ID NO: 28 and HC SEQ ID NO: 30 (antibody)
heavy: B1 heavy with D28T, I101T
light: B1 light
Deposited Aβ
  labeling of deposited Aβ in PDAPP hippocampus: labeled a subset of deposits

B4: Antibody I: anti-N3pGlu Aβ antibody, LC SEQ ID NO: 12 and HC SEQ ID NO: 11 (antibody)
heavy: B1 heavy with D28T, R31D, A97T, I101E, T110L
light: B1 light with I2V, T7S, S12P, P15L, L41F, L42Q, K44R, Q50R, L51R, A55D
Deposited Aβ
  labeling of deposited Aβ in PDAPP hippocampus: labeled a subset of deposits

B5: Antibody II: anti-N3pGlu Aβ antibody, LC SEQ ID NO: 13 and HC SEQ ID NO: 11 (antibody)
heavy: B1 heavy with D28T, R31D, A97T, I101E, T110L
light: DIQMTQSPSTLSASVGDRVTITCKSSQSLLYSRGKTYLNWLQQKPGKAPKLLIYAVSKLDSGVPSRFSGSGSGTEFTLTISSLQPDDFATYYCVQGTHYPFTFGQGTKLEIKRTVAAPSVFIFPPSDEQLKSGTASVVCLLNNFYPREAKVQWKVDNALQSGNSQESVTEQDSKDSTYSLSSTLTLSKADYEKHKVYACEVTHQGLSSPVTKSFNRGEC
Deposited Aβ
  labeling of deposited Aβ in PDAPP hippocampus: labeled a subset of deposits
